Earlier results as cited in PMC10269403 (Journal of medicinal chemistry, 2023).

Details: human, in vivo; cited from earlier work

## O=C1Nc2ccc(Cl)cc2[C@@](C#CC2CC2)(C(F)(F)F)O1 [EFV, efavirenz]
  median CSF levels: 35 to 90 nM
